The data set has as its target cPXR (Cyprinus carpio, UniProt A0A1P8P0E9).

Sequences of proteins named here, by UniProt entry; tags and fusion partners are left off.
UniProt A0A1P8P0E9, entry or part of it: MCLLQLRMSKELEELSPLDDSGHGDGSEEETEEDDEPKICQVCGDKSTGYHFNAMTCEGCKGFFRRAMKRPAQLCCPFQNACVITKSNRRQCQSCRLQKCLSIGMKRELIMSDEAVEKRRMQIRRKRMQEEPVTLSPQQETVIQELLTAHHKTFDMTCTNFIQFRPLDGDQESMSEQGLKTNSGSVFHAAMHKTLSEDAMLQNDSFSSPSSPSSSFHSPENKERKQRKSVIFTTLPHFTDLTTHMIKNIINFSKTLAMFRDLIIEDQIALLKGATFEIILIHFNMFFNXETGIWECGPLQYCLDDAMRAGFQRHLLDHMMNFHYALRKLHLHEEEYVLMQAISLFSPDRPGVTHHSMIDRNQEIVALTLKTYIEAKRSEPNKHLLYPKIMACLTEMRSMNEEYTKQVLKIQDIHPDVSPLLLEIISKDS

We go through one molecule from publication PMC5484788, “Development of a common carp (Cyprinus carpio) pregnane X receptor (cPXR) transactivation reporter assay and its activation by azole fungicides and pharmaceutical chemicals” (Toxicology in Vitro, 2017).

Each structure is given as a SMILES string.

With `CO[C@H]1/C=C/O[C@@]2(C)Oc3c(C)c(O)c4c(O)c(c(/C=N/N5CCN(C)CC5)c(O)c4c3C2=O)NC(=O)/C(C)=C\C=C\[C@H](C)[C@H](O)[C@@H](C)[C@@H](O)[C@@H](C)[C@H](OC(C)=O)[C@@H]1C` [RIF, rifampicin], the “activation of cPXR compared with control, single concentration” value is listed as “not supported statistically”.
